# AlphaSeq binding of Ab-95 light chain variants to a spike HR2 peptide

Target: peptide PDVDLGDISGINAS, taken from heptad repeat 2 (HR2) of SARS-CoV-2 spike.

Parent: Ab-95, a human scFv built as VH, a 15-residue (Gly4Ser)3 linker, VL. Only the CDRs of the light chain vary.
VH: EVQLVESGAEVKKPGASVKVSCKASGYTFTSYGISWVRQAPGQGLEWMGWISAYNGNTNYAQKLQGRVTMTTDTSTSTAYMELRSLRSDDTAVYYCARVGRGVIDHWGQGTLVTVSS
VL: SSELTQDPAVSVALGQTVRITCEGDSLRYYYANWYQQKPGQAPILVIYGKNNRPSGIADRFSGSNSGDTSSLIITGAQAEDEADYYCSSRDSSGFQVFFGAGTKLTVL

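The parent was found by panning a naive human phage display library on the peptide. Variants in AAYL52 differ from the parent at up to three CDR positions; double and triple changes were sampled at random. In AlphaSeq, yeast of one mating type display the scFv and yeast of the other type display the target. Mating (16 h, 30 °C) was followed by selection of diploids and sequencing of their barcodes. Scores were corrected for input abundance and mapped to Kd with protein pairs of known affinity run in the same pool. Mating was done three times.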

The parent's light chain CDRs are EGDSLRYYYAN, GKNNRPS, SSRDSSGFQVF; each variant's own CDRs replace them letter for letter. Each Kd is an estimate from the mating assay, the geometric mean of the replicates in which the pair was seen; lower is stronger. "nd" means that the variant was in the library but no mating with the target was seen in any replicate; the authors take this as a sign of poor binding, and no number exists. For reference, the parent read 200 nM as the reference entry and 180 nM as a member of this library. Three control strains display no target. For library AAYL52, 28% of the pairings with them gave a signal, with a median of 8.2 µM and one signal in twenty below 800 nM, so weak values seen in few replicates may be background.

The variant EGDNLRYYYAN | GKNRRPS | SSRDSAGFQVF showed 7.5 µM (2 of 3 replicates).
The variant EGDSLRYYYCN | GKNNCPS | SHRDSSGFQVF showed nd (0 of 3 replicates).
The variant EGDSLTYYYAN | GKNSRPS | SSRDSSGFQVE showed 520 nM (3 of 3 replicates).
The variant EGDSLRYYYVD | GKNNRPS | SSRDSAGFQVF showed 5.4 µM (3 of 3 replicates).
The variant EGDSLTYYYAN | GKNNRPG | KSRDSSGFQVF showed 780 nM (3 of 3 replicates).
The variant FGDSLRTYYAN | GKNNRPS | DSRDSSGFQVF showed 2.7 µM (3 of 3 replicates).
The variant EGDSWRYYYAN | DANNRPS | SSRDSSGFQVF showed 14 µM (1 of 3 replicates).
The variant EGDQLRYYYAN | GKNGRPS | SSRDPSGFQVF showed 6.2 µM (2 of 3 replicates).
The variant EGWSLRKYYAQ | GKNNRPS | SSRDSSGFQVF showed nd (0 of 3 replicates).
The variant EGDSLAYYWAN | GKNNRPS | SSRDSSGFQVV showed 11 µM (2 of 3 replicates).
The variant EGDSLRYYYAN | GKHNRPV | SSRRSSGFQVF showed nd (0 of 3 replicates).
The variant EKDSLRYSYAN | CKNNRPS | SSRDSSGFQVF showed 24 µM (2 of 3 replicates).
The variant EGDFLRYYYAN | GKNNRPS | SIRDKSGFQVF showed nd (0 of 3 replicates).
The variant EGDSLRYYYAF | GKNNLPS | SSRDCSGFQVF showed nd (0 of 3 replicates).
The variant ESDSLRVYYAN | GKNNRPL | SSRDSSGFQVF showed 290 µM (2 of 3 replicates).
The variant EGDSLRYYTAN | GKNNRPS | SSRDSSWFQVF showed nd (0 of 3 replicates).
The variant EGDSLYYYYAN | GKNNRPS | SSRDSSGFLVW showed 11 µM (2 of 3 replicates).
The variant EGDSLRYYYAT | GKNNRPS | SSRDYWGFQVF showed 58 µM (1 of 3 replicates).
The variant EGDSLRYYYAN | GKNYRPS | SSEYSSGFQVF showed nd (0 of 3 replicates).
The variant EGDSMRYYYAN | GKNNRPS | SSRDDSGFCVF showed 5.0 µM (1 of 3 replicates).
The variant EGDSLRYYYAN | GKNNCPS | SSEDSSGFQVF showed nd (0 of 3 replicates).

Further variants, results first:

74 nM (3 of 3 replicates): AGDSLRYYYAN | GKNNRPE | SSRDSSGFSVF.
7.9 µM (1 of 3 replicates): ENDSLRYYYAN | GKNNRPS | SSRDSSGWQVF.
300 nM (3 of 3 replicates): ELDSLRYYGAN | GKNNRPS | SSRDSSGFQVF.
37 µM (1 of 3 replicates): EGDSLRYYYAY | GENNRPS | SSRDSSGIQVF.
10 µM (1 of 3 replicates): EGDQLRYYYKP | GKNNRPS | SSRDSSGFQVF.
40 nM (3 of 3 replicates): EGNSLRYYYAN | GKNNRPS | SYRDSGGFQVF.
3.5 µM (3 of 3 replicates): EGDRLRYYYAR | GKNNRPS | SSRDSPGFQVF.
780 nM (3 of 3 replicates): EGDSLRYYYAR | GTNNRPS | SSRDSSGFQVF.
530 nM (1 of 3 replicates): EGECLRYYYAN | GKNNRPS | SSRDSSGFFVF.
55 µM (2 of 3 replicates): EGDQSRYYYAN | GKNNEPS | SSRDSSGFQVF.
150 nM (3 of 3 replicates): EGDSLRYYAAN | GKNNRPA | SSRDSSCFQVF.
69 nM (3 of 3 replicates): EGDSLRYYEAN | GKNNRLS | SSRDMSGFQVF.
1.9 µM (2 of 3 replicates): LGDSLRYYYAN | GKNNRPS | SSRDSSGFQHF.
4.7 µM (3 of 3 replicates): EGDSLRYYYAN | GKCNRPS | ESHDSSGFQVF.
360 nM (3 of 3 replicates): EGDSLRYYYAN | GKNNRPS | SARCSSGFQVF.
66 µM (2 of 3 replicates): WGDSLRYYYAN | GKNNRPP | SSRDSSGFGVF.
2.0 µM (3 of 3 replicates): EGDSLRYYYAN | GFNVRPS | SSRDSSGFCVF.
23 µM (1 of 3 replicates): WGDSLRYYYAN | GKNWRPS | SSRMSSGFQVF.
4.6 µM (3 of 3 replicates): EGDSLRYYYPN | HKNNRPS | SSRDSSGFIVF.
2.5 µM (1 of 3 replicates): EGDGLRYYYAN | GKNNRPS | SSRNSSHFQVF.
26 µM (1 of 3 replicates): EGDSLRYYYAN | GKNCRPS | SDRDSMGFQVF.
8.4 µM (3 of 3 replicates): EGDSLRYYYAH | GENNRPS | SSRDSSGYQVF.

Values reported by Engelhart et al. 2022, doi:10.1038/s41597-022-01779-4 (FLAb copy).